Experimental findings from ChEMBL document CHEMBL1201862, “PubChem BioAssay data set” (2004) are described below.

The chains behind the UniProt entries cited, without tags or fusion partners. Where a name states a change or a piece, a line headed by the entry shows the natural chain unless it says otherwise.
UniProt P49840: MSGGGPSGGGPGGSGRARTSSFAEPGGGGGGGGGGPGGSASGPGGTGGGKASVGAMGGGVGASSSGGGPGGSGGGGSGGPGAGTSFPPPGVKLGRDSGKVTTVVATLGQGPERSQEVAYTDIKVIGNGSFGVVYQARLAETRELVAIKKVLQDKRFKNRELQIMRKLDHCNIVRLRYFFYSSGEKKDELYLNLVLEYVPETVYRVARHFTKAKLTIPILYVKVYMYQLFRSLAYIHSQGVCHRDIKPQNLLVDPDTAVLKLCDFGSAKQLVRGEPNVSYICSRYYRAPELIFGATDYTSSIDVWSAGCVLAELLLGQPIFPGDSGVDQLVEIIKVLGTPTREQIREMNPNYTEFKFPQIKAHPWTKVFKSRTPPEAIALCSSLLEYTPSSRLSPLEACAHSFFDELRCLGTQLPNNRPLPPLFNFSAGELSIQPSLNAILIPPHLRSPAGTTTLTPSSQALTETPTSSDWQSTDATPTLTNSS
UniProt P98170, whole entry: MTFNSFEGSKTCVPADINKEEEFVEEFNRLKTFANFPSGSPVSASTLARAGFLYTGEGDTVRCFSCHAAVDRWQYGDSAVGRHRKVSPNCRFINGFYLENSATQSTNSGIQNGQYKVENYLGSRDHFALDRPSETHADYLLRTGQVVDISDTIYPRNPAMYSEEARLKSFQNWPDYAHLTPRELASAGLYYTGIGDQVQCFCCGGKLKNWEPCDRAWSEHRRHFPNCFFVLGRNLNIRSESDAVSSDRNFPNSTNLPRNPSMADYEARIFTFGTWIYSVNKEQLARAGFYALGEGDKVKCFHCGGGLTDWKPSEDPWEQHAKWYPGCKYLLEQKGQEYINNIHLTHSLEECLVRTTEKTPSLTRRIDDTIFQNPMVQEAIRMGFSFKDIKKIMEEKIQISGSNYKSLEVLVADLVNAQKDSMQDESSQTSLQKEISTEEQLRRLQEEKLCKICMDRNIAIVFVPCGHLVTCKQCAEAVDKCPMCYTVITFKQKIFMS

Activity calls are given as the source filed them. Unless noted, no cut-off for these calls is given here. A value given as a limit tells only on which side of the number the result lay.

For experiment [1], the target named is T1, Mannose-6-phosphate isomerase (Homo sapiens, UniProt P34949).
T1 sequence (P34949 whole entry): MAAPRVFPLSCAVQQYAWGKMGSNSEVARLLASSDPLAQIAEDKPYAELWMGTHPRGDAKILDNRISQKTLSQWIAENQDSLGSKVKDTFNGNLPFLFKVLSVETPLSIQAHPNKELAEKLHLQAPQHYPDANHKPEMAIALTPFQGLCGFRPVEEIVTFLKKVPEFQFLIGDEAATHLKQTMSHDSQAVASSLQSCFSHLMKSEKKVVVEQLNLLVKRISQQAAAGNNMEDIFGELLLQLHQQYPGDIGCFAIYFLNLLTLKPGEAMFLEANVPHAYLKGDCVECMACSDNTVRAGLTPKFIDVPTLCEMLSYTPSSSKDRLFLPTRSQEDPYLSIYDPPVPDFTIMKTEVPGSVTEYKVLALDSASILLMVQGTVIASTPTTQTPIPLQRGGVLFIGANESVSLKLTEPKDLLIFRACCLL
The experiment is described as follows: MPI inhibition at elevated mannose 6-phosphate – biochemical, fluorescence intensity, high mannose 6-phosphate, primary screen (AID 1220).

Experiment [2] deals with Glycogen synthase kinase-3 alpha (Homo sapiens, UniProt P49840). It is filed as functional.
For experiment [3], the target named is T2, E3 ubiquitin-protein ligase XIAP (Homo sapiens, UniProt P98170). The experiment is described as follows: SAR analysis of Antagonists of IAP-family anti-apoptotic proteins. [Related pubchem assays (depositor defined):AID1018, AID1449, AID1513, AID1514, AID1638].
For experiment [4], the target named is T2, E3 ubiquitin-protein ligase XIAP. Put plainly: SAR analysis of Antagonists of XIAP-Bir3 domain of IAP-family anti-apoptotic proteins. [Related pubchem assays (depositor defined):AID1018, AID1449, AID1513, AID1514, AID1638].
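Throughout, for Ki: GSK3A result taken from a broad kinome-wide kinase panel.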

Consider `O=c1c2ccccc2[se]n1-c1ccccc1` [EBSELEN], for which the IC50 in experiment [1] is < 391 nM (not active).
Consider `CN1CCC(c2c(O)cc(O)c3c(=O)cc(-c4ccccc4Cl)oc23)C(O)C1` (centres undefined), for which the Ki in experiment [2] was active: 794 nM.
As to `CC(C)[C@H](NC(=O)[C@H](C)N)C(=O)N1CCC[C@@H]1C(=O)NC(c1ccccc1)c1ccccc1`, the IC50 in experiment [3] and in experiment [4] was inactive: > 100 µM in each case.
